Usually IC50 stands for the concentration at which inhibition is half-maximal.

Amino acid sequences for entries named in this document (tags omitted). Residues count along the entry.
UniProt O42275, 24-633 limits assumed: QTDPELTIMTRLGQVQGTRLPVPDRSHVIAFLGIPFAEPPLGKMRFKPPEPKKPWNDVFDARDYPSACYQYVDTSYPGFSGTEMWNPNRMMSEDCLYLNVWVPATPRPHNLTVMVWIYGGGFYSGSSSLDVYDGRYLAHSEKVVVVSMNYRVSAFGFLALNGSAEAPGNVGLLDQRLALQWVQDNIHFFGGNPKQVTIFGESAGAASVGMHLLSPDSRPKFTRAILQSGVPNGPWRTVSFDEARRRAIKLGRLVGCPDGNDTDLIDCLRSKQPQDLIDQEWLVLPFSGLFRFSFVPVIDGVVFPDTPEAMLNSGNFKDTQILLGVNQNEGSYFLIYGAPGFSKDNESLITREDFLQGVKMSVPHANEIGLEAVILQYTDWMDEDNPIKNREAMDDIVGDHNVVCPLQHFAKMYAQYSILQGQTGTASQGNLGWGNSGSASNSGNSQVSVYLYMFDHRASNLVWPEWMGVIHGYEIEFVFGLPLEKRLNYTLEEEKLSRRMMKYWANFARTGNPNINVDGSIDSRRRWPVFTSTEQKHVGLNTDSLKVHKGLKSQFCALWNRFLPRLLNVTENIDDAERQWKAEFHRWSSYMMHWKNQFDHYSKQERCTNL
UniProt P81908, whole entry: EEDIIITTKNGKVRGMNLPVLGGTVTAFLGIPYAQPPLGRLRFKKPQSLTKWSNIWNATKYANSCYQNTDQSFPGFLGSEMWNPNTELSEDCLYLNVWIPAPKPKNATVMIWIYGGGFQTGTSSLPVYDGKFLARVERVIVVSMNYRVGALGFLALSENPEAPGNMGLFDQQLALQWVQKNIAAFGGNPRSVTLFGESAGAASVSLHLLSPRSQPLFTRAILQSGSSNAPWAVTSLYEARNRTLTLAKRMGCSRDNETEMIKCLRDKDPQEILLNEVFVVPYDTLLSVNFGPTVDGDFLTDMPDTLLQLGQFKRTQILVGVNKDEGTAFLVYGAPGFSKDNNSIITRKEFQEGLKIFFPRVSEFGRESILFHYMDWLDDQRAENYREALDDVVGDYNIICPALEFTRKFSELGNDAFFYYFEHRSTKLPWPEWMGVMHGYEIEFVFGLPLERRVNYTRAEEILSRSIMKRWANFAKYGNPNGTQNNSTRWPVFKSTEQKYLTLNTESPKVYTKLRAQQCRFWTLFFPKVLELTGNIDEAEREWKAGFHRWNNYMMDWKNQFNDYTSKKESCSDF

Among the data in ChEMBL document CHEMBL3044733, “Synthesis of novel phosphorothioates and phosphorodithioates and their differential inhibition of cholinesterases” (2009) are IC50 values, retold here.

In one experiment the target is Acetylcholinesterase (Electrophorus electricus, UniProt O42275). As to the kind of experiment: Inhibition of Electrophorus electricus (electric eel) acetylcholinesterase by Ellman method.
A further experiment concerns the target Cholinesterase (Equus caballus, UniProt P81908). As to the kind of experiment: Inhibition of Equus caballus (horse) serum butyrylcholinesterase by Ellman's method. (In general: Ellman's reagent forms a yellow product with free thiols.)

Turning to `CCOP(=O)(OCC)SCCN1C(=O)c2ccccc2C1=O`, the IC50 is 1.18 µM against Acetylcholinesterase and 0.22 µM at Cholinesterase.
